Test results as given in PubChem BioAssay (NCI).
This is a selection; strong and weak results do not stand in their true shares.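 How to read the values: 0–100, growth inhibition (40 = 60% inhibited); 0, no net growth; -100 to 0, cell death (-40 = 40% of starting cells died; -100 = all dead).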 Some salts and complexes are drawn in separate pieces, as the source files them; their charges need not balance. The source made the active and inactive calls. The calls were made as follows: active = growth percent below 10; inactive = the rest.

Assays:
Experiment in all cases: NCI-60 one-dose screen, 48 h (100 = growth as untreated, 0 = no growth, -100 = all killed)
Conditions in all cases: 10 µM
HCT-15 colon = tested on: HCT-15 colon
HT29 colon = tested on: HT29 colon
SNB-75 CNS = tested on: SNB-75 CNS
SNB-19 CNS = tested on: SNB-19 CNS
U251 CNS = tested on: U251 CNS
PC-3 prostate = tested on: PC-3 prostate
SK-MEL-5 melanoma = tested on: SK-MEL-5 melanoma
UACC-62 melanoma = tested on: UACC-62 melanoma
LOX IMVI melanoma = tested on: LOX IMVI melanoma
SK-MEL-28 melanoma = tested on: SK-MEL-28 melanoma

Measured: growth

CCN(CC)CCS
inactive: HCT-15 colon 104% | HT29 colon 103% | SNB-75 CNS 86.6% | SNB-19 CNS 97.6% | U251 CNS 98.1% | PC-3 prostate 96.2% | SK-MEL-5 melanoma 108% | UACC-62 melanoma 109% | LOX IMVI melanoma 107% | SK-MEL-28 melanoma 114%

CC(C)N(CCCl)C(C)C
inactive: HCT-15 colon 107% | HT29 colon 116% | SNB-75 CNS 107% | SNB-19 CNS 110% | U251 CNS 91.3% | PC-3 prostate 96% | SK-MEL-5 melanoma 102% | UACC-62 melanoma 104% | LOX IMVI melanoma 93.1% | SK-MEL-28 melanoma 116%

O=[N+]([O-])c1cc([N+](=O)[O-])c(O)c([N+](=O)[O-])c1.c1ccc([I+]c2ccccc2)cc1
inactive: HCT-15 colon 79.5% | HT29 colon 26.9% | SNB-75 CNS 80.1% | SNB-19 CNS 69.8% | U251 CNS 62.1% | PC-3 prostate 65.3% | SK-MEL-5 melanoma 32.3% | UACC-62 melanoma 89.9% | LOX IMVI melanoma 49.7% | SK-MEL-28 melanoma 79.5%

O=[N+]([O-])c1ccc(Oc2c([N+](=O)[O-])cc([N+](=O)[O-])cc2[N+](=O)[O-])cc1
inactive: HCT-15 colon 94.5% | HT29 colon 106% | SNB-75 CNS 104% | SNB-19 CNS 104% | U251 CNS 104% | PC-3 prostate 97.8% | SK-MEL-5 melanoma 98.6% | UACC-62 melanoma 100% | LOX IMVI melanoma 97.8% | SK-MEL-28 melanoma 112%

O=[N+]([O-])c1cc([N+](=O)[O-])c(NCCO)c([N+](=O)[O-])c1
inactive: HCT-15 colon 74.9% | HT29 colon 43.8% | SNB-75 CNS 85.3% | SNB-19 CNS 94% | U251 CNS 81.4% | PC-3 prostate 88.6% | SK-MEL-5 melanoma 99.4% | UACC-62 melanoma 80.4% | LOX IMVI melanoma 47.3% | SK-MEL-28 melanoma 106%

CNc1ccccc1.O=[N+]([O-])c1cc([N+](=O)[O-])c(O)c([N+](=O)[O-])c1
inactive: HCT-15 colon 103% | HT29 colon 110% | SNB-75 CNS 87.4% | SNB-19 CNS 100% | U251 CNS 91.1% | PC-3 prostate 106% | SK-MEL-5 melanoma 100% | UACC-62 melanoma 95.4% | LOX IMVI melanoma 97.6% | SK-MEL-28 melanoma 103%

CP(=S)(Cl)N(CCCl)CCCl (stereo not given)
inactive: HCT-15 colon 88.7% | HT29 colon 97.2% | SNB-75 CNS 75.7% | SNB-19 CNS 91.1% | U251 CNS 97.8% | PC-3 prostate 90.7% | SK-MEL-5 melanoma 108% | UACC-62 melanoma 99.5% | LOX IMVI melanoma 97.8% | SK-MEL-28 melanoma 96.8%

O=[N+]([O-])c1cc([N+](=O)[O-])c(Nc2nnnn2CCO)c([N+](=O)[O-])c1
inactive: HCT-15 colon 105% | HT29 colon 100% | SNB-75 CNS 85.9% | SNB-19 CNS 107% | U251 CNS 105% | PC-3 prostate 95.8% | SK-MEL-5 melanoma 109% | UACC-62 melanoma 96.4% | LOX IMVI melanoma 99.7% | SK-MEL-28 melanoma 114%
